Literature values, collected in patent publication US20130023485A1, “PARENTERAL FORMULATIONS OF PEPTIDES FOR THE TREATMENT OF SYSTEMATIC LUPUS ERYTHEMATOSUS” (Teva Pharmaceutical Industries, Ltd., priority 2003, published 2013).

Conditions: administered parenterally; relative to beta-cyclodextrin; cited from earlier work

Substance: hepta-substituted sulfobutylether (β-cyclodextrin [CAPTISOL®]
- nephrotoxicity: does not exhibit the nephrotoxicity
